Assay results: patent US11634396B2 (priority 2021, dated 2023)

Sequences of proteins named here, by UniProt entry; tags and fusion partners are left off. A change or cut given only in a name is not applied to a line headed by its entry.
UniProt P35372, whole entry: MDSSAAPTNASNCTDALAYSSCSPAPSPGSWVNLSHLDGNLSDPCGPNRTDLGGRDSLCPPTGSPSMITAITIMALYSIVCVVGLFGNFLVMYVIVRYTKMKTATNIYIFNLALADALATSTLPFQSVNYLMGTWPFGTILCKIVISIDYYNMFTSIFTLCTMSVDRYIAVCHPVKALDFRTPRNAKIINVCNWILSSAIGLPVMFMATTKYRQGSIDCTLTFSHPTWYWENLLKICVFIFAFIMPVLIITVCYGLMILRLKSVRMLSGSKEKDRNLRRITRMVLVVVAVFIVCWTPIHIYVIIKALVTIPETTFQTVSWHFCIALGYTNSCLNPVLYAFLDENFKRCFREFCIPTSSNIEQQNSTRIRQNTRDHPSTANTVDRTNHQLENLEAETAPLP
UniProt P41143, whole entry: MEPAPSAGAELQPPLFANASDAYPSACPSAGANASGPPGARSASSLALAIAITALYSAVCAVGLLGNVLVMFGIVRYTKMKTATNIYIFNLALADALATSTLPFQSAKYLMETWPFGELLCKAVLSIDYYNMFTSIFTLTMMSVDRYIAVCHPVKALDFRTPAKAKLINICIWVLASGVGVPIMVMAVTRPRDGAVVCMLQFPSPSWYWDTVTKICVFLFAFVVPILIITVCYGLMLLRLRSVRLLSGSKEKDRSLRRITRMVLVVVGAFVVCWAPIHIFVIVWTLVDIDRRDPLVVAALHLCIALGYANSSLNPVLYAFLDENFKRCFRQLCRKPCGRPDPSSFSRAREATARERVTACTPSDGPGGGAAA
UniProt P41145: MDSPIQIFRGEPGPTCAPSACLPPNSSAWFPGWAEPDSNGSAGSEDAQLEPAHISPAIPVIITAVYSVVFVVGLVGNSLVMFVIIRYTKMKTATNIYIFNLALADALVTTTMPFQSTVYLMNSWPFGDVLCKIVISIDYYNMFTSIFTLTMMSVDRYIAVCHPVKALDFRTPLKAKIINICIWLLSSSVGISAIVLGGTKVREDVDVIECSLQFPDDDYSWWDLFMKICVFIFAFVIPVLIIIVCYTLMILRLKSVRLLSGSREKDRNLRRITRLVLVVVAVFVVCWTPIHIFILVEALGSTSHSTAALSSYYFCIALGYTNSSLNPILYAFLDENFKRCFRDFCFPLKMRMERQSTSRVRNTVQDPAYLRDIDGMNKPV

Legend:
human mOR = human mOR (Homo sapiens (Human), UniProt P35372); test: cell-based
Method: (§1) CHO Tag-lite human mOR stable cell line from Cisbio (NCBI accession number: NM_000914.3, Bedford, Mass.) were seeded and grown to approximately 80% confluence in Ham F-12 with 10% FBS, 50 U/ml penicillin, 50 μg/ml streptomycin, 2 mM Hepes, and 1 mg/ml geneticin (Invitrogen, Carlsbad, Calif.). Cells were then harvested using accutase (Corning. Coming, N.Y.), centrifuged at 1300 RPM for 5 min, and plated at 5000 cells per 5 μL per well in a 5× dilution of stimulation buffer consisting of the HTRF cAMP Gi kit, water and IBMX at 0.5 mM (Cisbio, Bedford, Mass.) in white HTRF low volume 384 well plates (Cisbio, Bedford, Mass.). Plates were then incubated at 37° C. in 5% CO2 for 10 minutes. For the agonist assay, forskolin was added to a final concentration of 4 μM. […] Test compounds were dissolved in DMSO and water, and then serially diluted to working concentrations such that the concentration of DMSO was less than 0.1%. Diluted test compounds were added at 2.5 μL per well, and plates were incubated at 37° C., and 5% CO2 for 15 minutes, and then at room temperature for 15 minutes. Next 5 μl/well of cAMP Eu-cryptate and 5 μl/well of anti-cAMP-d2 (both diluted 1:20 in lysis buffer) were added, and plates were incubated at room temperature for 1 hour. Following incubation, plates were read in a Synergy Neo2 multi-mode reader (Biotek, Winooski, Vt.). […] For the agonist assay, data was normalized using the maximal DAMGO response. Measurements were performed in triplicate and the dose response was fit using nonlinear regression.

human dOR = human dOR (Homo sapiens (Human), UniProt P41143); test: cell-based; details: dOR cAMP Agonist Assay EC50, CHO Tag-lite human dOR stable cell line; forskolin
Method: as §1

kOR (OPRK1) = kOR (OPRK1) (Homo sapiens (Human), UniProt P41145); test: KOR β-Arrestin antagonist assay (Tango OPRK1-bla U2OS cells); assay type: cell-based
Source text: KOR β-Arrestin Agonist and Antagonist assays were preformed using the Tango™ OPRK1-bla U2OS cells from Invitrogen and purchased from ThermoFisher, catalog number K1576.

Row | Structure (SMILES) | IC50 (human mOR) [nM] | EC50 (human dOR) [nM] | IC50 (kOR (OPRK1)) [nM]
1 | C[C@H](CC(=O)NC[C@H](Cc1ccc(C(N)=O)cc1)N(C)C)c1ccccc1 [Compound 98, 4-((S)-2-(dimethylamino)-3-((R)-3-phenylbutanamido)propyl)benzamide] | > 3000 |  | 
2 | Cc1c(C[C@@H](CNC(=O)C[C@H](C)c2ccccc2)N(C)C)ccc2[nH]ncc12 [Compound 198, (S)-N-((S)-2-(dimethylamino)-3-(4-methyl-1H-indazol-5-yl)propyl)-3-phenylbutanamide] | < 300 | > 3000 | 
3 | CNC(=O)c1ccc(C[C@@H](CNC(=O)C[C@@H](c2ccc(Cl)cn2)C2(C(F)(F)F)CC2)N(C)C)c(C)c1 [Compound 137, 4-((S)-3-((R)-3-(5-chloropyridin-2-yl)-3-(1-(trifluoromethyl)cyclopropyl)propanamido)-2-(dimethylamino)propyl)-N,3-dimethylbenzamide] | < 300 |  | 
4 | CNC(=O)c1ccc(C[C@@H](CNC(=O)C[C@H](C)c2ccccc2)N(C)C)cc1F [Compound 167, 4-((S)-2-(dimethylamino)-3-((S)-3-phenylbutanamido)propyl)-2-fluoro-N-methylbenzamide] | > 3000 | < 300 | 
5 | C[C@H](CC(=O)NC[C@H](Cc1ccc(O)c(Cl)c1)N(C)C)c1ccccc1 [Compound 289, (R)-N-((S)-3-(3-chloro-4-hydroxyphenyl)-2-(dimethylamino)propyl)-3-phenylbutanamide] | < 300 |  | 300 to 3000
6 | C[C@@H](CC(=O)NC[C@H](Cc1c(F)cc(O)cc1F)N(C)C)c1ccccc1 [Compound 240, (S)-N-((S)-3-(2,6-difluoro-4-hydroxyphenyl)-2-(dimethylamino)propyl)-3-phenylbutanamide] | < 300 |  | < 300
7 | C[C@H](CC(=O)NC[C@H](Cc1ccc(C(N)=O)cc1Cl)N(C)C)c1ccccc1 [Compound 14, 3-chloro-4-((S)-2-(dimethylamino)-3-((R)-3-phenylbutanamido)propyl)benzamide] | < 300 | < 300 | 300 to 3000
8 | C[C@@H](CC(=O)NC[C@H](Cc1ccc(O)cc1)N(C)C)c1ccccc1 [Compound 321, (S)-N-((S)-2-(dimethylamino)-3-(4-hydroxyphenyl)propyl)-3-phenylbutanamide] | < 300 |  | 300 to 3000
9 | CNC(=O)c1ccc(C[C@@H](CNC(=O)C[C@@H](C)c2ccccc2)N(C)C)cc1Cl [Compound 149, 2-chloro-4-((S)-2-(dimethylamino)-3-((R)-3-phenylbutanamido)propyl)-N-methylbenzamide] | < 300 | < 300 | 
10 | C[C@@H](CC(=O)NC[C@H](Cc1ccc(C(N)=O)cc1Cl)N(C)C)c1ccccc1 [Compound 15, 3-chloro-4-((S)-2-(dimethylamino)-3-((S)-3-phenylbutanamido)propyl)benzamide] | < 300 | < 300 | < 300
11 | Cc1c(C[C@@H](CNC(=O)C[C@H](C)c2ccccc2)N(C)C)ccc2c1CC(=O)N2 [Compound 181, (3S)-N-[(2S)-2-(dimethylamino)-3-(4-methyl-2-oxo-2,3-dihydro-1H-indol-5-yl)propyl]-3-phenylbutanamide] |  | > 3000 | 
12 | C[C@@H](CC(=O)NC[C@H](Cc1ccc2[nH]ncc2c1)N1CCCC1)c1ccccc1 [Compound 222, (S)-N-((S)-3-(1H-indazol-5-yl)-2-(pyrrolidin-1-yl)propyl)-3-phenylbutanamide] | < 300 | > 3000 | 
13 | C[C@H](CC(=O)NC[C@H](Cc1ccc(O)cc1)N(C)C)c1ccccc1 [Compound 320, (R)-N-((S)-2-(dimethylamino)-3-(4-hydroxyphenyl)propyl)-3-phenylbutanamide] | < 300 |  | < 300
14 | C[C@@H](CC(=O)NC[C@H](Cc1ccc(O)c(Cl)c1)N(C)C)c1ccccc1 [Compound 288, (S)-N-((S)-3-(3-chloro-4-hydroxyphenyl)-2-(dimethylamino)propyl)-3-phenylbutanamide] | < 300 | < 300 | 300 to 3000
15 | CNC(=O)c1ccc(C[C@@H](CNC(=O)C[C@H](c2ccc(Cl)cn2)C2(C(F)(F)F)CC2)N(C)C)c(C)c1 [Compound 138, 4-((S)-3-((S)-3-(5-chloropyridin-2-yl)-3-(1-(trifluoromethyl)cyclopropyl)propanamido)-2-(dimethylamino)propyl)-N,3-dimethylbenzamide] | < 300 |  | 
16 | CNC(=O)c1ccc(C[C@@H](CNC(=O)C[C@H](C)c2ccccc2)n2ccnc2)cc1F [Compound 161, 44-((S)-2-(1H-imidazol-1-yl)-3-((S)-3-phenylbutanamido)propyl)-2-fluoro-N-methylbenzamide] | > 3000 | > 3000 | 
17 | Cc1c(C[C@@H](CNC(=O)C[C@H](C)c2ccccc2)N(C)C)ccc2[nH]c(=O)oc12 [Compound 171, (3S)-N-[(2S)-2-(dimethylamino)-3-(7-methyl-2-oxo-2,3-dihydro-1,3-benzoxazol-6-yl)propyl]-3-phenylbutanamide] | < 300 | > 3000 | 
